Assay [1] relates to hematopoietic progenitor cells. Nature of the assay: Hematopoietic progenitor clonogenic assays (CFU-GEMM, BFU-e, CFU-GM). In kind it is cell-based, human. The settings on record: for Pro-hematopoiesis in vitro Enhancement: relative increase of hematopoietic colony cell number, hCG preparations 200 IU/ml, subunits and peptides 100 μg/ml. The procedure: The effect of hCG preparations and peptides was assayed on hematopoietic progenitor cells in vitro: Hematopoietic progenitor cells (2×10^5 cell/ml) were isolated from normal bone marrow and cord blood and seeded in methylcellulose. The following hCG preparations and peptides were used in these clonogenic assays were: hCG (APL™); hCG alpha subunit (Sigma); purified hCG heterodimer CR 127; β-hCG peptide 109-119 (SEQ ID NO:7) (Bachem); β-hCG peptide 45-57 (SEQ ID NO:6); β-hCG, peptide 45-57 circularized (44-57 with cysteine substituted for the amino acid at position 44, SEQ ID NO:26); mixture of scrambled β-hCG peptides 45-57 and 109-119; and crude preparation of native β-hCG Also tested were the peptides 45-57 linked at the C-terminus via a peptide bond to the N-terminus of 109-119 (45-57::109-119; SEQ ID NO:30), 47-55 (SEQ ID NO:20) and 48-56 (SEQ ID NO:35) as well as other hCG, α-hCG and β-hCG preparations and α-hCG and β-hCG peptides (Table 3). The hCG preparations were administered at 200 IU/ml and the β- and α-subunits and peptides were administered at 100 μg/ml. The native commercial preparation of hCG (APL™, Wyeth Ayerst) was pre-tested for anti-HIV and anti-KS activities. Aggregates containing more than 50 cells after 10 days of culture were counted as colonies.

In the next assay the test system is KS Y-1 and KS-SLK cells. Briefly: Kaposi's Sarcoma clonogenic assay in cultured cells. The class given is cell-based, human. The settings on record: for KS in vitro: inhibition of Kaposi's Sarcoma cell growth in vitro in cultured cells; for inhibition of KS cell growth in clonogenic assays (in words): KS Y-1 and KS SLK. The procedure:
Briefly, the KS Y-1 cells were obtained from mononuclear cells isolated from pleural effusion of an AIDS patient with KS in the lungs. After the depletion of T lymphocytes, monocytes/macrophages and fibroblasts using monoclonal antibodies against CD2, CD3, CD4, CD8, CD10 and CD14 membrane antigens and baby rabbit complement, the cells were cultured in the absence of exogenous growth factors to select for transformed cells. […] Clonogenic assays were performed by seeding the KS Y-1 or KS-SLK cells in methylcellulose (0.8%, v/v), incubating the cells for 10 days in the presence or absence of the hCC, β-hCG or β-hCG peptide preparations and then counting the number of well-formed colonies of triplicate wells formed after seeding with 5×10^4 cells.
To assay for activity against Kaposi's sarcoma cell growth in vitro, the clonogenic assay described herein was used with the KS Y-1 and KS-SLK cultured Kaposi's Sarcoma cell lines,. The cells were incubated in 200 IU/ml of commercial hCG preparations; 50 μl/ml of certain fractions from the hCG preparation of early pregnancy urine fractionation; or 100 μg/ml β- and α-hCG chains, β-hCG core protein, β-hCG peptides or LH (leuteinizing hormone).

For assay [2], the system named is Kaposi's Sarcoma induced in mice. Briefly: Kaposi's Sarcoma tumors induced in mice by KS Y-1 cells. To be noted: inhibition of Kaposi's Sarcoma induced in mice. In kind it is in vivo. The procedure: The effects of the peptides on KS tumor cells were also evaluated in vivo in the KS mouse model. To induce KS tumors in the mice, 1×10^6/ml KS Y-1 cells in 50 μl PBS or saline were injected subcutaneously into immunodeficient mice (beige-XID-BNX mice). After one week, tumors ranged in size from 2 mm×3 mm to 3 mm×5 mm. Methods for detection of apoptosis (from tissue biopsies) were used, as described in Lunardi-Iskandar et al.(1995, Nature 375:64-68). Briefly, the samples were stained in situ for the presence of cells with DNA fragmentation. Tissue slides from formalin-fixed tumors were treated with terminal deoxynucleotide transferase for extension of DNA ends (hydroxyl 3′) and incorporation of digoxigenin-11-dUTP according to the manufacturer's instructions (Oncor, Gaithersburg, Md.). Anti-digoxigenin antibody conjugated with the enzyme peroxidase allowed detection of apoptotic cells, which stain brown, whereas viable cells stain blue.
Certain fractions were tested for activity in reducing Kaposi's Sarcoma lesions in the Kaposi's Sarcoma mouse model as described herein. In this assay, starting one week after injection of the KS Y-1 cells to induce Kaposi's sarcoma formation, the mice were injected subcutaneously with 100 IU hCG. […] After one week of the week of treatment with the hCG fractions, the KS lesions were examined for cell apoptosis and regression as described herein.
Certain fractions of the APL™ hCG and early pregnancy urine were assayed for their ability to elicit apoptosis in Kaposi's Sarcoma lesions induced by injection of KS Y-1 cells in mice (n=3 mice for each treatment). The mice were administered 100 μl subcutaneously of the particular fraction each day for one week. Table 4 presents data on the size of the Kaposi's Sarcoma lesions and the percentage of apoptotic cells within the lesion after one week of treatment with fractions 60, 64, 64, 74, 82 and 85 of the APL™ hCG fractions and the unfractionated APL™ hCG preparation. […] Treatment with fractions 82 and 85 (containing material with apparent molecular weights smaller than approximately 2-3 kD) of the APL™ hCG material also elicited almost no Kaposi's Sarcoma lesion regression or apoptosis (Table 4). The unfractionated APL™ hCG, as well as fractions 60 and 74 (fractions within the peaks containing material with apparent molecular weight of approximately 15 kb and 2-3 kD, respectively) of the APL™ hCG fractionated material, caused about 50% apoptsis within the lesion and significant lesion regression (Table 4).

The record followed here is patent publication US6699834B1, “Method for treating cancer” (University of Maryland Biotechnology Institute, priority 1997, dated 2004).

Entries after “also recorded” stand apart in the source; their conditions may differ.

For “αfp1769A: purified, native α subunit (NICHD, NIH)”, the “Pro-hematopoiesis in vitro Enhancement” value in assay [1] is “− (“−” represents less than 10% effect)”. For the same substance, the KS in vitro result with KS Y-1 and KS-SLK cells is “− (“−” represents less than 10% effect)”.

As to “αhCG: purified native α subunit of hCG (Sigma)”, in assay [1], the “promotion of hematopoiesis (in words)” value is “did not promote hematopoiesis” and the “Pro-hematopoiesis in vitro Enhancement” value is “− (“−” represents less than 10% effect)”. Moreover, in the assay on KS Y-1 and KS-SLK cells, the “inhibition of KS cell growth in clonogenic assays (in words)” value (shortened to “inhibition of KS cell growth”) was “negligibly” and the KS in vitro result is “− (“−” represents less than 10% effect)”. Further, the KS in vivo entry in assay [2] was “− (“−” represents less than 10% effect)”.

Consider “ORGANON: a highly purified hCG preparation obtained from Organon”, for which the KS in vitro result with KS Y-1 and KS-SLK cells is given as “− (“−” represents less than 10% effect)”. The KS in vivo entry in assay [2] is reported as “− (“−” represents less than 10% effect)”.

Regarding “rαhCG: recombinant α subunit expressed in mouse cells (Sigma)”, the “Pro-hematopoiesis in vitro Enhancement” value in assay [1] is recorded as “− (“−” represents less than 10% effect)”. In addition, the KS in vitro result in the assay on KS Y-1 and KS-SLK cells is listed as “− (“−” represents less than 10% effect)”. Also, the KS in vivo entry in assay [2] was “− (“−” represents less than 10% effect)”.

On to “CR1XY17B: mixture of highly purified α-hCG and β-hCG from NICHD, NIH [reference compound]”, for which the “Pro-hematopoiesis in vitro Enhancement” value in assay [1] is reported as “− (“−” represents less than 10% effect)”. Besides, in the assay with KS Y-1 and KS-SLK cells, the KS in vitro entry is given as “− (“−” represents less than 10% effect)”. In assay [2], the KS in vivo entry is “− (“−” represents less than 10% effect)”.

As to “rhCG: recombinant hCG expressed in a mouse cell line (Sigma)”, the “Pro-hematopoiesis in vitro Enhancement” value in assay [1] is “− (“−” represents less than 10% effect)”. In the assay on KS Y-1 and KS-SLK cells, the “inhibition of KS cell growth” value was “negligibly” and the KS in vitro result is “− (“−” represents less than 10% effect)”. Further, the KS in vivo entry in assay [2] is on record as “− (“−” represents less than 10% effect)”.

Take “CR127: highly purified hCG preparation from NICHD, NIH [reference compound]”: in assay [1], the “promotion of hematopoiesis (in words)” value was “but not by; also recorded: did not promote hematopoiesis” and the “Pro-hematopoiesis in vitro Enhancement” value is recorded as “− (“−” represents less than 10% effect)”. The “inhibition of KS cell growth” value with KS Y-1 and KS-SLK cells (listed as C-R127) is “inactive”. Also, the “inhibition of KS cell growth” value with KS Y-1 and KS-SLK cells (listed as CR 127) is on record as “negligibly”. Also, the KS in vitro entry in the assay on KS Y-1 and KS-SLK cells is “− (“−” represents less than 10% effect)”.

For “CR1XY17V: highly purified hCG preparation from NICHD, NIH [reference compound]”, in assay [1], the “Pro-hematopoiesis in vitro Enhancement” value is on record as “− (“−” represents less than 10% effect)”. In the assay with KS Y-1 and KS-SLK cells, the KS in vitro entry was “− (“−” represents less than 10% effect)”.
